pKd: −log10 of the molar value.
Biological target: human dopamine D2 receptor (Homo sapiens, UniProt P14416)
Assay: Saturation radioligand binding to membranes of transfected COS-7 cells
Design: rescreened with the S1 probe alone to identify those most likely to be full length; expressed in transfected cells; host or cells: COS-7 cells (transient, 16A-pCD-PS DNA)
Conditions: 30 min at 30° C., COS-7 transfected with 16A-pCD-PS

The chains behind the UniProt entries cited, without tags or fusion partners. Residues count along the entry.
UniProt P14416, 1-414 isoform P14416-2: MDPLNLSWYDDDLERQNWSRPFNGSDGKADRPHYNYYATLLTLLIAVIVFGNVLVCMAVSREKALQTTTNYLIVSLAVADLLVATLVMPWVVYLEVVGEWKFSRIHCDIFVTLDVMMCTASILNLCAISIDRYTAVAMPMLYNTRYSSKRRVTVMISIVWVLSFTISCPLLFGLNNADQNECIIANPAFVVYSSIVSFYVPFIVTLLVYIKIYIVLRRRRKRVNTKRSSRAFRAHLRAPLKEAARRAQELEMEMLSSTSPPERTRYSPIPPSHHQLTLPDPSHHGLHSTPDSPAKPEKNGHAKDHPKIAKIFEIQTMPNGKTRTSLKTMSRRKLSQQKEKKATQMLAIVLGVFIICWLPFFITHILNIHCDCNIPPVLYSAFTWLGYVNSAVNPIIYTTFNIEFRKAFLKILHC

Question: `CCN1CCC[C@H]1CNC(=O)c1c(O)c(Cl)cc(Cl)c1OC` [^3 H-raclopride] was tested. Which pKd did it give?
Answer: 8.49

Reference: patent US6214615A (The United States of America as represented by the …, priority 1996, dated 2001)
